# Earlier results as cited in PMC8484413 (Dermatology and Therapy, 2021).
# System: patients with moderate-to-severe plaque psoriasis
# Details: phase 2, plaque psoriasis; placebo 4%; cited from earlier work
substance,measurement,value
Deucravacitinib,Rate of treatment discontinuation due to adverse events,2–7%
